{"source": "patent US9233107B2", "about": "“Compositions and methods for the treatment of progressive multifocal leukoencephalopathy (PML)” (Biogen MA Inc., priority 2007, dated 2016)", "origin": "cited, not measured here", "biological_target": "A2a receptor (Homo sapiens, UniProt P29274)", "conditions": "compared with the other enantiomer (Weiss, Benwell et al. 2003); cited from earlier work", "data": [{"compound": "O[C@@H](c1cc(C(F)(F)F)nc2c(C(F)(F)F)cccc12)[C@H]1CCCCN1", "note": "(single isomer, unassigned) [(−) enantiomer]", "values": [{"measurement": "antagonistic activity against A2a receptor, in words", "value": "much more potent in antagonistic activity against A2a receptor"}]}]}
